Compound activity deposited in PubChem BioAssay by National Center for Advancing Translational Sciences (NCATS).
A selection: hits, their analogues and other compounds. The true share with any hit is near 1.1%.
PINK1 expr mod: modulators of PINK1 expression. PINK1 immunofluorescence, high-content cytometry, 24 h. Potency, µM (series often up to 76.6 µM), without a hit: at the highest dose activation (PINK1 increase), most hits filed as activators. 410,000 compounds, 0.2% hits. AID 624263; active = well fitted activation curve with a large enough effect; inconclusive = small, poorly fitted or top-dose-only effect; cell line not stated here; note: potency is the fitted concentration of half-maximal effect; % of control where 0% means no effect; nearly all actives have a fitted effect of over 65% in size
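Measures PINK1 amount and localization on or inside mitochondria by immunofluorescence. Stable cells get compounds at 5 concentrations for 24 hours before fixation and staining; CCCP controls included.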
miR-21 reporter: miR-21 reporter, rising signal. 340,000 tested, under 10 active. Potency, µM (highest dose often 38.3 µM), for the others: at the highest dose reporter change, positive = more light. HeLa miR-21 FLuc reporter, luciferase, 48 h. AID 2288; active = well fitted rising curve with a large enough effect; inconclusive = small, poorly fitted or top-dose-only effect; inactive = no such curve, though single readings can be large or run the other way;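 further: % of control where 0% means no effect; miR-21 action dims this reporter so a rising signal means less miR-21 action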
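Using DMEM plus 10% FBS, HeLa miR-21-FLuc cells are incubated with test compounds (final up to about 40uM) for 48 hours; firefly luciferase signal is then imaged following reagent-mediated lysis.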
GALK inh: inhibitors of human galactokinase; P51570; Purified GALK, Kinase-Glo residual ATP luminescence; Potency, µM (doses to about 57.5 µM), without a hit: top-dose activity change, negative = inhibition, usual class: inhibitors; 270,000 compounds, 0.007% hits; AID 1868; note: potency is the fitted concentration of half-maximal effect; % is set by controls: 0 for no effect and ±100 for the full control effect
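Compounds were pin-transferred into ATP buffer (35 uM final), then GALK plus galactose (5 nM, 100 uM final) was added. After 1 h at room temperature, Kinase-Glo Plus was added and luminescence read after 10 min.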
TrxR1 inh-1: inhibitors of rat thioredoxin reductase 1. Potency, µM (titrated, usually from 114 µM), for inactives: at the top dose activity change, negative = inhibition, usual class: inhibitors. 390,000 compounds, 1% hits. O89049. recombinant rTrxR1, NADPH fluorescence consumption, selenite substrate. AID 588453; note: potency is the fitted concentration of half-maximal effect; % is set by controls: 0 for no effect and ±100 for the full control effect; nearly all actives have a fitted effect of over 65% in size
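Rat TrxR1 (90 nM in the dispensed reagent) was pre-reduced with 400 uM NADPH for 5 min at room temperature, then incubated with compound for 15 min. After 400 uM selenite was added, NADPH fluorescence (Ex 340/Em 450 nm) was followed for 8 min.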
TrxR1 substrate: rat thioredoxin reductase 1 substrate activity | AID 588456 | purified TrxR1 substrate turnover, NADPH consumption readout | Potency, µM (titrated, usually from 114 µM), inactives show at the top dose activity change, negative = substrate turnover | O89049 | 390,000 compounds, 0.01% hits; note: potency is the fitted concentration of half-maximal effect; % is set by controls: 0 for no effect and ±100 for the full control effect; nearly all actives have a fitted effect of over 50% in size
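Rat TrxR1, dispensed at 90 nM, was prereduced with 400 uM NADPH (final) for 5 min at ~22 deg C, then incubated with compound 15 min before 400 uM selenite. A first-read NADPH fluorescence drop versus no-compound background flagged substrates.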
HepG2 viability: reduces HepG2 viability in TRb-SRC2 counter-screen; AID 2447; Potency, µM; HepG2 viability, ATP luminescence (CellTiter-Glo), 72 h; 40 compounds, 50% hits; shares compounds with TrxR1 inh-1; calls by dose curve
GR counterassay: glutathione reductase inhibition, TrxR1 selectivity check; shares compounds with TrxR1 inh-1; purified GR, DTNB reduction absorbance 405 nm kinetic; 55 tested, under 10 active; activity change, negative = inhibition, % at 57.1 µM
TrxR1 inh-2: validation of rat thioredoxin reductase 1 inhibitors; shares compounds with TrxR1 inh-1; recombinant TrxR1, NADPH fluorescence consumption, selenite substrate; Potency, µM, most hits filed as inhibitors; 55 compounds, 50% hits; AID 652023
TrxR1 insulin: TrxR1 inhibition in insulin mechanism assay; shares compounds with TrxR1 inh-1; TrxR1 Trx-coupled insulin reduction, NADPH absorbance 340 nm; Potency, µM; 55 compounds, 20% hits; AID 652037;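 active = compounds with a measured potency under 100 micromolar; inconclusive = filed, but no rule given; inactive = potency at or above that, or unmeasurable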
TrxR1 inh-3: inhibitors of rat thioredoxin reductase 1, DTNB reduction; shares compounds with TrxR1 inh-1; purified TrxR1, DTNB reduction, A412; Potency, µM; 55 compounds, 90% hits;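 active = a half-inhibiting concentration could be measured and was below 100 µM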
* marks the source's active call; other numbers are inactive results; [ ] = another dose, or the depositor's remark. Unless noted, calls come from the whole dose curve; as a rule, active = well fitted curve in the direction sought with a large enough effect; inconclusive = small, poorly fitted or top-dose-only effect, or another doubt; inactive = no such curve, though single readings can be large; an effect the other way counts as inactive or inconclusive.

A first look, 2 compounds:
How did COc1ccc(N(C(=O)c2ccncc2)S(=O)(=O)c2cccc([N+](=O)[O-])c2)cc1 do in these assays?
PINK1 expr mod: -0.6%; miR-21 reporter: -4.8%; GALK inh: 4.8%; TrxR1 inh-1: 50.1µM*; TrxR1 substrate: -3.5%; GR counterassay: -6.8; TrxR1 inh-2: 9.47*; TrxR1 insulin: inactive; TrxR1 inh-3: 9.23µM*

What do the screens show for `COc1ccc(N(C(=O)c2cccnc2)S(=O)(=O)c2cccc([N+](=O)[O-])c2)cc1`?
PINK1 expr mod: 2.1%; miR-21 reporter: 0.3%; GALK inh: -2.3%; TrxR1 inh-1: -16.5%[57.1 µM]; TrxR1 substrate: -0.3%[57.1 µM]

All compounds of this part (from the top)
How did COc1ccc(N(C(=O)c2ccncc2)S(=O)(=O)c2cccc([N+](=O)[O-])c2)cc1 do in these assays?
PINK1 expr mod: -0.6%; miR-21 reporter: -4.8%; GALK inh: 4.8%; TrxR1 inh-1: 50.1µM*; TrxR1 substrate: -3.5%; GR counterassay: -6.8; TrxR1 inh-2: 9.47*; TrxR1 insulin: inactive; TrxR1 inh-3: 9.23µM*

What do the screens show for `COc1ccc(N(C(=O)c2cccnc2)S(=O)(=O)c2cccc([N+](=O)[O-])c2)cc1`?
PINK1 expr mod: 2.1%; miR-21 reporter: 0.3%; GALK inh: -2.3%; TrxR1 inh-1: -16.5%[57.1 µM]; TrxR1 substrate: -0.3%[57.1 µM]

What do the screens show for `O=C(Cn1c(-c2cccs2)cc2cc(Cl)ccc21)N1CCN(c2ccccc2)CC1`?
PINK1 expr mod: 2.6%; miR-21 reporter: -5.4%; TrxR1 inh-1: 39.8%; TrxR1 substrate: 47.8%

Results for CS(=O)(=O)c1ccc(C(=O)OCC(=O)N2CCCCC2)cc1[N+](=O)[O-] ?
HepG2 viability: 20.8µM*

What do the screens show for `CC(C)Cn1cc(NC(=O)NCc2ccccc2Cl)c2ccccc2c1=O`?
PINK1 expr mod: -3.3%; miR-21 reporter: -0.8%; TrxR1 inh-1: -2.3%; TrxR1 substrate: 4.2%

What do the screens show for `CCc1ccc(N(CC)C(=O)c2ccc3c(=O)n4c(nc3c2)CCCCC4)cc1`?
PINK1 expr mod: 0.6%; miR-21 reporter: 25.6%; TrxR1 inh-1: -9.5%; TrxR1 substrate: -5.4%

What do the screens show for `CCc1ccc(NC(=O)C2CCN(C(=O)N3CC(CC)Oc4ccccc43)CC2)cc1` (stereo not drawn)?
PINK1 expr mod: -0.5%; miR-21 reporter: -29.2%; TrxR1 inh-1: 37.0%[11.4 µM]; TrxR1 substrate: 9.5%[11.4 µM]

How did Cc1c(NC2=C(Cl)C(=O)N(c3ccccc3)C2=O)c(=O)n(-c2ccccc2)n1C do in these assays?
PINK1 expr mod: 0.1%; miR-21 reporter: -6.2%; GALK inh: -3.7%; TrxR1 inh-1: 3.16µM*; TrxR1 substrate: 1.1%; GR counterassay: -17.9; TrxR1 inh-2: 2.67*; TrxR1 insulin: inactive; TrxR1 inh-3: inactive

How did O=C(COC(=O)c1cc(S(=O)(=O)N2CCOCC2)ccc1F)Nc1cc([N+](=O)[O-])ccc1F do in these assays?
PINK1 expr mod: -1.4%; TrxR1 inh-1: 6.5%; TrxR1 substrate: 0.4%

How did O=C(COC(=O)c1cc([N+](=O)[O-])ccc1Cl)NC1CCCC1 do in these assays?
PINK1 expr mod: -1.8%; miR-21 reporter: -0.2%; GALK inh: 8.2%; TrxR1 inh-1: inconclusive; TrxR1 substrate: -8.3%
